This note sets out measurements from patent publication US6887658B2, “Methods of identifying non-specific inhibitors of biomolecules” (Northwestern University, priority 2001, dated 2005).

The nature of the series: Dynamic light scattering (DLS). It is filed as physicochemical.

“Also recorded” adds a separate entry of the source.

Turning to `O=S(=O)(O)c1cccc2cccc(Nc3ccccc3)c12` [ANS, 8-anili-no-1-naphthalene-sulfonic acid], the “particle formation in solution by DLS (autocorrelation function)” value is given as “did not form particles in solution; also recorded: absence of particles”.
